Paper PMC5629633

What was measured:
[1] = system: Nc1ncnc2c1ncn2[C@@H]1O[C@H](COP(=O)(O)OP(=O)(O)OP(=O)(O)O)[C@@H](O)[C@H]1O; test: purified protein; details: pH 8.0, 30 °C, 11 mM MgCl2, co-substrate L-glutamine
NC(=O)CC[C@H](N)C(=O)O = test: purified protein; details: pH 8.0, 30 °C, 11 mM MgCl2, co-substrate ATP

Cj1418 (L-glutamine kinase) (Campylobacter jejuni subsp. jejuni NCTC 11168 = ATCC 700819)
Km [1]: 340 ± 70 µM | kcat [1]: 2.5 ± 0.3 s⁻¹ | kcat (NC(=O)CC[C@H](N)C(=O)O): 2.5 ± 0.3 s⁻¹
